Test results as given in BindingDB's records for doi:10.1124/jpet.104.066761 (National Institutes of Health, 2004).

Biological target: Gastrin-releasing peptide receptor (Homo sapiens) (UniProt P30550)

Ki: 97 nM
SMILES: CSCC[C@H](NC(=O)[C@H](Cc1ccccc1)NC(=O)[C@H](Cc1cnc[nH]1)NC(=O)CNC(=O)[C@@H](NC(=O)[C@H](C)NC(=O)[C@H](Cc1c[nH]c2ccccc12)NC(=O)[C@H](CC(C)C)NC(=O)[C@H](CC(N)=O)NC(=O)CN)[C@@H](C)O)C(N)=O [NMB]
